Ab-91 heavy chain CDR variants: yeast mating affinities

Values reported by Engelhart et al. 2022, doi:10.1038/s41597-022-01779-4 (FLAb copy).

The target is the same throughout: PDVDLGDISGINAS, from the HR2 region of SARS-CoV-2 spike.

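The starting antibody came from a phage panning campaign against this peptide. Library AAYL51 holds single substitutions and randomly drawn double and triple substitutions in the CDRs. In AlphaSeq, yeast of one mating type display the scFv and yeast of the other type display the target. After mating in shaken culture at 30 °C for 16 h, diploids were selected and their barcode pairs sequenced. Read counts were normalised to the haploid input and turned into Kd by a linear fit to BCL2-family pairs of known affinity, for each replicate. Mating was done three times.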

The variants keep the light chain, the linker and the frameworks of Ab-91 (scFv order VL, three GGGGS repeats, VH).
VL: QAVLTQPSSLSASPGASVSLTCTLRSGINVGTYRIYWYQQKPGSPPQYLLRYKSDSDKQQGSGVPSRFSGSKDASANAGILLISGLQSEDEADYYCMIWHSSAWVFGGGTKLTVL
VH: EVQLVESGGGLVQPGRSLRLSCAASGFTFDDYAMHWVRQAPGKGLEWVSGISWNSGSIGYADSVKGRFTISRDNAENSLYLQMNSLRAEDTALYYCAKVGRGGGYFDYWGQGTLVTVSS

Each variant is given by its three heavy chain CDRs, as the data file delimits them; those of the parent are GFTFDDYAMH, GISWNSGSIGYADSVK, VGRGGGYFDY. All variants listed here change S55 of the VH, counted from its first residue. The Kd shown is the geometric mean over detected replicates; a lower Kd is a better binder. "nd" means that the variant was in the library but no mating with the target was seen in any replicate; the authors take this as a sign of poor binding, and no number exists. For reference, the parent read 72 nM as the reference entry and 7.5 nM as a member of this library. Background: pairings of library AAYL51 with three empty control strains gave a value in 21% of cases (median 34 µM, 5th percentile 1.8 µM). Values in that range, when seen in few replicates, are hard to tell from nonspecific mating. For each scFv, signals with the empty controls are counted beside the result.

Variant GFTFDDYAMH / GISWNAGSIGYASSVK / VGRGGGVFDY gave 36 µM (1 of 3 replicates; controls 4 of 9).
Variant GFWFDDYAMH / GISWNKGSIGYADSVK / VGRGYGYFDY gave nd (0 of 3 replicates; controls 0 of 9).
Variant GFTFDDYAMH / GISWNKGSINYADSVK / VGRGGGYMDY gave 85 µM (2 of 3 replicates; controls 7 of 9).
Variant GATFDDYAMH / GISRNIGSIGYADSVK / VGRGGGYFDY gave 170 µM (1 of 3 replicates; controls 6 of 9).
Variant GFTFDDYAMS / GISWNPGSIGYADSVK / VGRGGGYFDY gave nd (0 of 3 replicates; controls 0 of 9).
Variant GFHFDDYAMH / GISWNWGSIGYADSVK / IGRGGGYFDY gave 170 µM (3 of 3 replicates; controls 5 of 9).
Variant GFTDDDYAMH / GISWNMGSIGYADSVY / VGRGGGYFDY gave nd (0 of 3 replicates; controls 2 of 9).
Variant GFTFDDYAMH / GISWNHGSIGYADSVK / VGNGGGIFDY gave 2.7 µM (1 of 3 replicates; controls 0 of 9).
Variant GFTFDMYAMH / GISWNLGSAGYADSVK / VGRGGGYFDY gave 69 µM (1 of 3 replicates; controls 2 of 9).
Variant GFTFDDYAMH / GISWNVGSIHYPDSVK / VGRGGGYFDY gave 46 µM (1 of 3 replicates; controls 1 of 9).
Variant GFTFDDYAMH / GISWNQGSIGYADSVK / TGRGVGYFDY gave 7.5 µM (1 of 3 replicates; controls 1 of 9).
Variant GFTFDDYAMH / GISWNCGSIGYADSVK / VGRGAGYFDY gave 4.5 µM (1 of 3 replicates; controls 1 of 9).
Variant GFTFDDYAMH / GISWNYGSIGYADSVK / AGRGGGYFDQ gave 11 µM (1 of 3 replicates; controls 2 of 9).
Variant GFTFDDYAMH / GISWNKGSIGYADSVK / VGRGGNYFAY gave 220 µM (3 of 3 replicates; controls 6 of 9).
Variant GFTFDDYAMH / GISWNEGSIGYADSVT / VGRGGGRFDY gave 94 µM (3 of 3 replicates; controls 4 of 9).
Variant GFTFDDYAMH / GISWNVGSIGYADSVK / VGRGGGYFSY gave nd (0 of 3 replicates; controls 2 of 9).
Variant GFTFDDYAMH / GISWNNGDIGYADSVK / VGRGGGYFCY gave 9.3 µM (1 of 3 replicates; controls 2 of 9).
Variant GFTFDDYAMK / GISWNLGSIGYADSVK / VGRGGGYFQY gave 11 µM (2 of 3 replicates; controls 4 of 9).
Variant GFTFDDYAMM / GISWNRGSIIYADSVK / VGRGGGYFDY gave nd (0 of 3 replicates; controls 0 of 9).
Variant GFTFDDYAMH / GISWNKGSIGYADSVK / VGRGRGYFDS gave 61 µM (2 of 3 replicates; controls 6 of 9).
Variant GFTFDDYAMH / HISWNFGSIGYADSVK / VGRGGYYFDY gave nd (0 of 3 replicates; controls 0 of 9).
Variant GFTFDDYAMH / GISWNEGSIGYADSVK / VHRGGGYFDY gave 170 µM (2 of 3 replicates; controls 1 of 9).
Variant GFCFDDYAMH / GISWNNGSIGYADSVK / VGRGGGYFDK gave 3.5 µM (2 of 3 replicates; controls 1 of 9).
Variant CFTFDYYAMH / GISWNMGSIGYADSVK / VGRGGGYFDY gave 35 µM (1 of 3 replicates; controls 1 of 9).
Variant GFTFDDYAMH / FISWNTGSIGYADVVK / VGRGGGYFDY gave nd (0 of 3 replicates; controls 0 of 9).
Variant GFTFDDYAMH / GISWNDGSIGLEDSVK / VGRGGGYFDY gave nd (0 of 3 replicates; controls 0 of 9).
Variant GFTFDDYSMH / GISWNLGSIGYADSVQ / VGRGGGYFDY gave 340 µM (1 of 3 replicates; controls 4 of 9).
Variant GFTFDDYAMH / GISWWNGSIGYIDSVK / VGRGGGYFDY gave 260 µM (1 of 3 replicates; controls 4 of 9).
Variant GFTFDDYAMH / GISWNTGSIGYADSGK / VSRGGGYFDY gave nd (0 of 3 replicates; controls 0 of 9).
Variant GFTFDDYAMH / GICWNEGSIGYASSVK / VGRGGGYFDY gave nd (0 of 3 replicates; controls 0 of 9).
Variant GFTFDDPAMH / GISWNVGSIGYADVVK / VGRGGGYFDY gave 8.6 µM (2 of 3 replicates; controls 1 of 9).
Variant GFTFDQYTMH / GISWNMGSIGYADSVK / VGRGGGYFDY gave nd (0 of 3 replicates; controls 0 of 9).
Variant PFTFDDYAMH / GISWNKGSIGYADSVK / VGHGGGYFDY gave nd (0 of 3 replicates; controls 1 of 9).
Variant GFTFDDYAMH / GISWNKGSIVYADSVK / VGRGGFYFDY gave nd (0 of 3 replicates; controls 1 of 9).
Variant GFTFDDYAMH / DISWNWGSIGYEDSVK / VGRGGGYFDY gave nd (0 of 3 replicates; controls 0 of 9).
Variant MFTFDDYAMA / GISWNAGSIGYADSVK / VGRGGGYFDY gave nd (0 of 3 replicates; controls 0 of 9).
Variant GFTFDDYAMH / GISNNQGSIGYADSVK / VGRGGGYFDY gave nd (0 of 3 replicates; controls 0 of 9).
Variant GFEFDDYIMH / GISWNCGSIGYADSVK / VGRGGGYFDY gave nd (0 of 3 replicates; controls 6 of 9).
Variant GFTFDDGAMH / GIEWNMGSIGYADSVK / VGRGGGYFDY gave nd (0 of 3 replicates; controls 0 of 9).
Variant GFTQDDYAMH / GISWNIGSIGYADSVK / VGRGGGYFDY gave nd (0 of 3 replicates; controls 0 of 9).
Variant VFTFDDYAMH / GISWNAGSIGYADSVK / VGRGGGYFDY gave 9.9 nM (3 of 3 replicates; controls 3 of 9).
Variant GFTFDDYAMH / GISWNFGSIGYADSVK / VGKGGGYTDY gave nd (0 of 3 replicates; controls 3 of 9).
Variant GFTFDDYAMH / GISWNPGSIGYLDSVK / VGRGGGYFDY gave 5.9 µM (1 of 3 replicates; controls 4 of 9).

Excerpt, the final 6 entries:

For GFEFDDYIMH / GISWNCGSIGYADSVK / VGRGGGYFDY, the assay gave nd (0 of 3 replicates; controls 6 of 9).
For GFTFDDGAMH / GIEWNMGSIGYADSVK / VGRGGGYFDY, the assay gave nd (0 of 3 replicates; controls 0 of 9).
For GFTQDDYAMH / GISWNIGSIGYADSVK / VGRGGGYFDY, the assay gave nd (0 of 3 replicates; controls 0 of 9).
For VFTFDDYAMH / GISWNAGSIGYADSVK / VGRGGGYFDY, the assay gave 9.9 nM (3 of 3 replicates; controls 3 of 9).
For GFTFDDYAMH / GISWNFGSIGYADSVK / VGKGGGYTDY, the assay gave nd (0 of 3 replicates; controls 3 of 9).
For GFTFDDYAMH / GISWNPGSIGYLDSVK / VGRGGGYFDY, the assay gave 5.9 µM (1 of 3 replicates; controls 4 of 9).